Experiment: in vitro
Details: mouse

| SMILES | CC50 |
| --- | --- |
| C=COC(=O)NCCOP(=O)(OCC)OCC [EPEVC, 2-(diethoxyphosphoryloxy)ethylamine vinyl carbamate] | > 10 mM |
| C=COC(=O)P(=O)(OCC)OCC [VCPDE, vinyloxycarbonyl phosphonic acid diethyl ester] | > 10 mM |

Reference: patent US8999323B2, “Composition that can be cured by polymerisation for the production of biodegradable, biocompatible, cross-linkable polymers on the basis of polyvinyl alcohol” (Technische Universität Wien, priority 2007, dated 2015)
